Chains of the proteins cited; added tags and fusions are not shown.
UniProt P00519, whole entry: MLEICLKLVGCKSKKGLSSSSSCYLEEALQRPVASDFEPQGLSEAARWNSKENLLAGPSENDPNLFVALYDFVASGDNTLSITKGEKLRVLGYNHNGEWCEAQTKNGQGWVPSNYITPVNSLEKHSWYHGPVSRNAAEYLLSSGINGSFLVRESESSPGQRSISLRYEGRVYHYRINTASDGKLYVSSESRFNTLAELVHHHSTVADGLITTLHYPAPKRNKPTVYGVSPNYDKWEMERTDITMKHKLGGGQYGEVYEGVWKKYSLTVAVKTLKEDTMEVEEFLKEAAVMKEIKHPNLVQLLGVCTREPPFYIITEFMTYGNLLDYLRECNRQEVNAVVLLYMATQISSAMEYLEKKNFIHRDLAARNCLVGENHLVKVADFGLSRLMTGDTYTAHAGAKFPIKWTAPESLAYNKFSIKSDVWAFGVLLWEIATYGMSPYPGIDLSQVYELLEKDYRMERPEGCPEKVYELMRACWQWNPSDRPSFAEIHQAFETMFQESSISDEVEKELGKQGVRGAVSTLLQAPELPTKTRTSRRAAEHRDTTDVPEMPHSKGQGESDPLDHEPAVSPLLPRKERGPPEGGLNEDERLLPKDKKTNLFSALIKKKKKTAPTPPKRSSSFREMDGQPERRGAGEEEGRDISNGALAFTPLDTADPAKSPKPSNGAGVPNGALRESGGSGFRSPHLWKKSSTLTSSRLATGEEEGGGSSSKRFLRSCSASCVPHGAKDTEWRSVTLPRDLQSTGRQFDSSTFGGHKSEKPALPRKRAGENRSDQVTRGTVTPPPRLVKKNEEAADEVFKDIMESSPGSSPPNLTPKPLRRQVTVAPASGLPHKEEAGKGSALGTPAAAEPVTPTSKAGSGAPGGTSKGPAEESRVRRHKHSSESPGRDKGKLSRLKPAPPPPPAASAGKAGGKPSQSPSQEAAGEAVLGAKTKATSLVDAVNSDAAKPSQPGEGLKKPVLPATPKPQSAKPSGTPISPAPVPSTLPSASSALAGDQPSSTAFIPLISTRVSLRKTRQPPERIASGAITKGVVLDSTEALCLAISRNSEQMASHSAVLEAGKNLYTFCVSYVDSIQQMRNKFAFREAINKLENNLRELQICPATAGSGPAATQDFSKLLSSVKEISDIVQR

In patent US20200243166A1:

Target: protein ABL1 (Homo sapiens, UniProt P00519)
Assay: binding force / activity against protein ABL1 (IC50)
Details: read-out: binding force, IC50 (50% inhibitory concentration); ligand for protein ABL1 (kinase)
Method: The binding force of this ligand is at a level of 1 μM with an IC50 (50% inhibitory concentration). […] In a case where the activity of this compound is actually measured, the activity is at the same level as that of the ligand. That is, FIGS. 11A and 11B are an example showing that compounds having similar invariant AAM descriptors have similar drug efficacies. As described above, according to the first embodiment, a feature quantity (invariant AAM descriptor) accurately showing the chemical properties of the target structure can be obtained.

IC50: 1000 nM
Structure (SMILES): COc1ccccc1Oc1ccc2n[nH]c(-c3nc4ccc(N5CCC(N6CCCCC6)CC5)cc4[nH]3)c2c1
